Experimental data from paper PMC12136037, “Type II kinase inhibitors that target Parkinson’s disease–associated LRRK2” (Science Advances, 2025).

Chains of the proteins cited; added tags and fusions are not shown. Residues count along the entry.
UniProt P00519, whole entry: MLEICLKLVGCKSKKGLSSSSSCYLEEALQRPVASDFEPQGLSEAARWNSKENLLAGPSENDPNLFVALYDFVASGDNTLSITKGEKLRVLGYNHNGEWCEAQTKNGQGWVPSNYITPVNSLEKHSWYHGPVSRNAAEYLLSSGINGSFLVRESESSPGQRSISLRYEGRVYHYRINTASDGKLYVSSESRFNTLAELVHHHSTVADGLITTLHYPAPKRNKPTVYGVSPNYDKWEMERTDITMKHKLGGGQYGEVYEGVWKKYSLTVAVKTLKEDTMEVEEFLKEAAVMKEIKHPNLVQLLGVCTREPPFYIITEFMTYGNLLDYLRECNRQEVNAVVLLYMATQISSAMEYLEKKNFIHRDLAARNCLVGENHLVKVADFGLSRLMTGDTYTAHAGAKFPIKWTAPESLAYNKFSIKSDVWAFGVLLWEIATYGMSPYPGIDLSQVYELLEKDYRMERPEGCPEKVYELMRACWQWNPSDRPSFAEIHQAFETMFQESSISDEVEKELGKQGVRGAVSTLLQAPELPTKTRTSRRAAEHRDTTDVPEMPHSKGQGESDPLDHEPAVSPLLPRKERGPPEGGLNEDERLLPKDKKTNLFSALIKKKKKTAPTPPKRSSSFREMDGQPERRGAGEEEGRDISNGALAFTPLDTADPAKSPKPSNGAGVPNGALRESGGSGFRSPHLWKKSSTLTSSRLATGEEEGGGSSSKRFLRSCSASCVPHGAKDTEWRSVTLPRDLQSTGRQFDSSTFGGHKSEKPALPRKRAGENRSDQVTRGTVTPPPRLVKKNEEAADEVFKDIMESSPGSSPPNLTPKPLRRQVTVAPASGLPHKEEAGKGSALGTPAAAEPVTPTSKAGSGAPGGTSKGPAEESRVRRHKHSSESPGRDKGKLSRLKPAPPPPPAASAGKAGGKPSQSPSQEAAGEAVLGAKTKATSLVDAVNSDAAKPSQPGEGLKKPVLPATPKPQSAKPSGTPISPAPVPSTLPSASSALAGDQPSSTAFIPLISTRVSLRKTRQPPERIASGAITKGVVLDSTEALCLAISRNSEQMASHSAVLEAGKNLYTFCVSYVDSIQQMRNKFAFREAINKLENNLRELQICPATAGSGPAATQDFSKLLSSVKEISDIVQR
UniProt P11309, whole entry: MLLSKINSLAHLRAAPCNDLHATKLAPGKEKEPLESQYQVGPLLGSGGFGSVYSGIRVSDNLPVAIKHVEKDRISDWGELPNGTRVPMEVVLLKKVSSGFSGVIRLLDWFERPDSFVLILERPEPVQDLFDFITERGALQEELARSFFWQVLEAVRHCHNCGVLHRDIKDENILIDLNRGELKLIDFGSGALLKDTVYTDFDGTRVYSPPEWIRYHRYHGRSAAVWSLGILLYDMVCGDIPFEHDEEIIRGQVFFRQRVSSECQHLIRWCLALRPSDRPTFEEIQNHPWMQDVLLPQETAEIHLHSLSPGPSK
UniProt P19784, whole entry: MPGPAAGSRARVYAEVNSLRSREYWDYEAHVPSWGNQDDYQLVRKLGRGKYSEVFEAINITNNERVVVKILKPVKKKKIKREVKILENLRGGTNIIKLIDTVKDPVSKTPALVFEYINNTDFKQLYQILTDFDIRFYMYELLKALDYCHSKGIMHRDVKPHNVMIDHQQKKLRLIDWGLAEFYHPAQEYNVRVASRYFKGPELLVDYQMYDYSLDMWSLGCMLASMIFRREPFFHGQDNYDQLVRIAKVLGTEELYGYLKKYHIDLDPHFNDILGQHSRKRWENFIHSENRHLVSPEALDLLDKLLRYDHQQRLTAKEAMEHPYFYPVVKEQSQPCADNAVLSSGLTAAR
UniProt P54764, 20-986 limits assumed: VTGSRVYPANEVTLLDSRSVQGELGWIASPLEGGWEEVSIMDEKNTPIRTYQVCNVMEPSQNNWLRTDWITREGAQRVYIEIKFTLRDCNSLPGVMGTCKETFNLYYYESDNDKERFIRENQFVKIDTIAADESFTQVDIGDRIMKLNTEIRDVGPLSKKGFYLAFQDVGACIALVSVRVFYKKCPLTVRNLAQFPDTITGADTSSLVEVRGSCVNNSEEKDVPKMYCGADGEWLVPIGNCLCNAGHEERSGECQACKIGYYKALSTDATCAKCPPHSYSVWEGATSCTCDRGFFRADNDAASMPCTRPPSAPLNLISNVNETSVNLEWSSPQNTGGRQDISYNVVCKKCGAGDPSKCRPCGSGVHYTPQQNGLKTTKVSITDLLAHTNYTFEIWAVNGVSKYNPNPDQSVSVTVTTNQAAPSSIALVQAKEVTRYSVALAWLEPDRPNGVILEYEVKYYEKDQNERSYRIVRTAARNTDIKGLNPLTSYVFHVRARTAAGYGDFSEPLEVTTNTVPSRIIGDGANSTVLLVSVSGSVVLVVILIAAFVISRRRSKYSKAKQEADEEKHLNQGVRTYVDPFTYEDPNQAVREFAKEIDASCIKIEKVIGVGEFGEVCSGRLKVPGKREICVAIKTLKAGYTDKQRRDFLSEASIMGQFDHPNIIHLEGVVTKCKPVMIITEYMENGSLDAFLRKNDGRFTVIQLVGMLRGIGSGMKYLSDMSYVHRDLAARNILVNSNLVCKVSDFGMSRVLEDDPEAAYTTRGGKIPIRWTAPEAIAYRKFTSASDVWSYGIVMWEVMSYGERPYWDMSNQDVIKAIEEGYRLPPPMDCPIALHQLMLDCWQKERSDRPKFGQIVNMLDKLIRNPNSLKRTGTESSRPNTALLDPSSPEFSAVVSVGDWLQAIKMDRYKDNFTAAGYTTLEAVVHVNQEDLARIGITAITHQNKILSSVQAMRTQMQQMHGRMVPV
UniProt Q09013, whole entry: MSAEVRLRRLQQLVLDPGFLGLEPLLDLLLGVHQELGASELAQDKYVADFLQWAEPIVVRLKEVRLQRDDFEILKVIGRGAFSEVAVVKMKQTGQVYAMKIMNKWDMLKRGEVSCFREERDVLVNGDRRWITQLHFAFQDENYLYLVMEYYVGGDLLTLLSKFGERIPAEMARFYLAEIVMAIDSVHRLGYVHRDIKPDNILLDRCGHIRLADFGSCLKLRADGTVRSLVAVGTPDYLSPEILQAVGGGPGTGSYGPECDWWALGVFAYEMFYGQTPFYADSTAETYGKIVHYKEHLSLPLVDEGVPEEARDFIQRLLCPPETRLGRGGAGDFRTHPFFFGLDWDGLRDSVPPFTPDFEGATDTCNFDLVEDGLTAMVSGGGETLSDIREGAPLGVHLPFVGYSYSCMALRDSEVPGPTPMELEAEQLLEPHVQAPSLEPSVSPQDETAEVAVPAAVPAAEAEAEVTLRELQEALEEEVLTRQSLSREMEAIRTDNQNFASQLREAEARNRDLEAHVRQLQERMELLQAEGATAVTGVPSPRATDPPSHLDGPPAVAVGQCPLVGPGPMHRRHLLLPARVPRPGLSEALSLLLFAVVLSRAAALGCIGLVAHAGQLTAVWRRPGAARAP
UniProt Q8TD08, whole entry: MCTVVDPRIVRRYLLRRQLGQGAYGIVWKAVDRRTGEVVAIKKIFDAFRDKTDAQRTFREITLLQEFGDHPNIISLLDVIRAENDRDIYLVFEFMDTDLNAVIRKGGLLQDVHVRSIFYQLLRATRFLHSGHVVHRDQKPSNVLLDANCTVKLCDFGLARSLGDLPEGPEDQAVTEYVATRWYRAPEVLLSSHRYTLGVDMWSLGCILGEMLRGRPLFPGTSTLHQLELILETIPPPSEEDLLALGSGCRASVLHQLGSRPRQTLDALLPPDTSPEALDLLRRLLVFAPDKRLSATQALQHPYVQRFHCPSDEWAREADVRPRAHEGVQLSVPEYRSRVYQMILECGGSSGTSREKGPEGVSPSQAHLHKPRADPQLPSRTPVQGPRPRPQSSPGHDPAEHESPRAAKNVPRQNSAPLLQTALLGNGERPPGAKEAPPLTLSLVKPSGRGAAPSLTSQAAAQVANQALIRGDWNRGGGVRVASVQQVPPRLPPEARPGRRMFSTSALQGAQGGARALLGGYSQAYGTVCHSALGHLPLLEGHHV
UniProt Q96L34, whole entry: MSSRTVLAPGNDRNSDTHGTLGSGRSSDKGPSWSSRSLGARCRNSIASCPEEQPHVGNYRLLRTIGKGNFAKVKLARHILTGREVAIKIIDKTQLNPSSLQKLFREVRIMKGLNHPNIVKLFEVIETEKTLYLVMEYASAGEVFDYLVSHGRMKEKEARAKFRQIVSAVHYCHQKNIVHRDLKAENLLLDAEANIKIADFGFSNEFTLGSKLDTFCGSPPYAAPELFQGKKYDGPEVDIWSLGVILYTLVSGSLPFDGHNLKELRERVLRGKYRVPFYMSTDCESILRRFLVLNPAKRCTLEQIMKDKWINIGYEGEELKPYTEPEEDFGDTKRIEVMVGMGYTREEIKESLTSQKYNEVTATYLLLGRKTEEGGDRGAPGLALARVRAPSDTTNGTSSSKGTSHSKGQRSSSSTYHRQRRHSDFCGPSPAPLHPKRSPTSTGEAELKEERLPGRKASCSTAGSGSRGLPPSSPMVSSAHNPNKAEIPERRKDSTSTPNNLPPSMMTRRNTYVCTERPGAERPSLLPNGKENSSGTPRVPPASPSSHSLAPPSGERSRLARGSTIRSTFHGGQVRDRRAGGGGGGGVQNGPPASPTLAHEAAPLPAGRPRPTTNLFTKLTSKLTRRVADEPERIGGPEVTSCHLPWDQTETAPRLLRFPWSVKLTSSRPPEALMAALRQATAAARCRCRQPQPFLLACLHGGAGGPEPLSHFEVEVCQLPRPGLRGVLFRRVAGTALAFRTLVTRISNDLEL
UniProt Q9H2X6, whole entry: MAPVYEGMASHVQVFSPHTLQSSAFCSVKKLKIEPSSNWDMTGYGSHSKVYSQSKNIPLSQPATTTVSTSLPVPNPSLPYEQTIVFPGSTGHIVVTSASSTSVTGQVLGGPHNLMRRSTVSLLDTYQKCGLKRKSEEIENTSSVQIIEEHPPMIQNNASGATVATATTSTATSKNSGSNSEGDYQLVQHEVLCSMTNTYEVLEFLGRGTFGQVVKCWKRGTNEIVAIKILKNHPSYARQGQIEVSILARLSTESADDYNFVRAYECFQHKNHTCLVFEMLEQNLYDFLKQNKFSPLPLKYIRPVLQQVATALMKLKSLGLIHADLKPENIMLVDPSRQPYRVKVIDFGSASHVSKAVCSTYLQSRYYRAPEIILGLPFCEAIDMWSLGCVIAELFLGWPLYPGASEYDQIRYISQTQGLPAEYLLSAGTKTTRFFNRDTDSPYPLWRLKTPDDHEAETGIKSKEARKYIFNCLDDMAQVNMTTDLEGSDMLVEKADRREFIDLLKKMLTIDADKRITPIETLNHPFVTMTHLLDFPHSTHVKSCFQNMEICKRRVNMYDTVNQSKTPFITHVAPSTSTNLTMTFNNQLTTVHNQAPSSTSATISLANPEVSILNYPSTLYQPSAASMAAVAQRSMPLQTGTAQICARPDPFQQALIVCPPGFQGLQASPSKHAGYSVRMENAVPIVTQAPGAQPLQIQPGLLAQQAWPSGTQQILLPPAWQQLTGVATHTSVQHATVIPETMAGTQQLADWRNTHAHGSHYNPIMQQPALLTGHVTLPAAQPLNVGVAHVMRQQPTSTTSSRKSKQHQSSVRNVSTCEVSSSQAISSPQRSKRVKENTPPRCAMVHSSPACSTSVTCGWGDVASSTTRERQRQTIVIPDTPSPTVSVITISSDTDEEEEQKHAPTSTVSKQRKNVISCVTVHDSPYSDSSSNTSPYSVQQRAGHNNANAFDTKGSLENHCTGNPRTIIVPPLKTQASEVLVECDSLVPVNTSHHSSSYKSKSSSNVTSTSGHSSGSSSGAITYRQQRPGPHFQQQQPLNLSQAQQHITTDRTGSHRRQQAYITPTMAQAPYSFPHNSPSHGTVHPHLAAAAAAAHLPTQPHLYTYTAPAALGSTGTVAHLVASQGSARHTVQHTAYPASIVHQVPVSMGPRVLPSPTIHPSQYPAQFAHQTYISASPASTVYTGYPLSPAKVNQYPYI
UniProt Q9UEE5, whole entry: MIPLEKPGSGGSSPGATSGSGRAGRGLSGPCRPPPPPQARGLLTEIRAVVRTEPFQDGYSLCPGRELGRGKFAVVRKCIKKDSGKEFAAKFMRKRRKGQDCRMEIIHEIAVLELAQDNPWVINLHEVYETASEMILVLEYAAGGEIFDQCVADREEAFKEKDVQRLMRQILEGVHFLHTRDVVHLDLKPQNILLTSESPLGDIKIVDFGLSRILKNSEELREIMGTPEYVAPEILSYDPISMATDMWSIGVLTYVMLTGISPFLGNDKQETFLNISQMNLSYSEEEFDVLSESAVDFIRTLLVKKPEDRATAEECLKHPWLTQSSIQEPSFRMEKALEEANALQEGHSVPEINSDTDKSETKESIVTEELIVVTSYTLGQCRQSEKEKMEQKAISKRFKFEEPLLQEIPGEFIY

Legend:
Test in all cases: DSF 100 kinase selectivity screen;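 further: compound tested at 20 µM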
Format in all cases: binding
[1] = target: ~100 representative kinases (Homo sapiens, UniProt O14965); details: Protein STK6; DSF; average of three replicates
[2] = target: ~100 representative kinases (Homo sapiens, UniProt O14976); details: protein GAK; average of three replicates
[3] = target: ~100 representative kinases (Homo sapiens, UniProt O75385); details: Protein ULK1; DSF; average of three replicates
[4] = target: ~100 representative kinases (Homo sapiens, UniProt O94804); details: Protein STK10; DSF; average of three replicates
[5] = target: ~100 representative kinases (Homo sapiens, UniProt O95747); details: protein OSR1; average of three replicates
[6] = target: ~100 representative kinases (Homo sapiens, UniProt O96013); details: protein PAK4; average of three replicates
[7] = target: ~100 representative kinases (Homo sapiens, UniProt O96017); details: Protein CHEK2; average of three replicates
[8] = target: ~100 representative kinases (Homo sapiens, UniProt P00519); details: Protein ABL1; average of three replicates
[9] = target: ~100 representative kinases (Homo sapiens, UniProt P11309); details: protein PIM1; average of three replicates
[10] = target: ~100 representative kinases (Homo sapiens, UniProt P15056); details: Protein BRAF; average of three replicates
[11] = target: ~100 representative kinases (Homo sapiens, UniProt P17948); details: protein FLT1; average of three replicates
[12] = target: ~100 representative kinases (Homo sapiens, UniProt P19784); details: Protein CK2A2; average of three replicates
[13] = target: ~100 representative kinases (Homo sapiens, UniProt P27448); details: protein MARK3; average of three replicates
[14] = target: ~100 representative kinases (Homo sapiens, UniProt P28482); details: protein MAPK1; average of three replicates
[15] = target: ~100 representative kinases (Homo sapiens, UniProt P34947); details: protein GPRK5; average of three replicates
[16] = target: ~100 representative kinases (Homo sapiens, UniProt P45985); details: protein MAP2K4; average of three replicates
[17] = target: ~100 representative kinases (Homo sapiens, UniProt P49137); details: protein MAPKAPK2; average of three replicates
[18] = target: ~100 representative kinases (Homo sapiens, UniProt P49674); details: Protein CSNK1E; average of three replicates
[19] = target: ~100 representative kinases (Homo sapiens, UniProt P51955); details: protein NEK2; average of three replicates
[20] = target: ~100 representative kinases (Homo sapiens, UniProt P53779); details: protein MAPK10; average of three replicates
[21] = target: ~100 representative kinases (Homo sapiens, UniProt P54764); details: Protein EPHA4; average of three replicates
[22] = target: ~100 representative kinases (Homo sapiens, UniProt Q00532); details: Protein CDKL1; average of three replicates
[23] = target: ~100 representative kinases (Homo sapiens, UniProt Q02750); details: protein MAP2K1; average of three replicates
[24] = target: ~100 representative kinases (Homo sapiens, UniProt Q09013); details: Protein DMPK1; average of three replicates
[25] = target: ~100 representative kinases (Homo sapiens, UniProt Q13188); details: Protein STK3; DSF; average of three replicates
[26] = target: ~100 representative kinases (Homo sapiens, UniProt Q15418); details: Protein RPS6KA1; DSF; average of three replicates
[27] = target: ~100 representative kinases (Homo sapiens, UniProt Q8TD08); details: protein MAPK15; average of three replicates
[28] = target: ~100 representative kinases (Homo sapiens, UniProt Q8TF76); details: protein GSG2; average of three replicates
[29] = target: ~100 representative kinases (Homo sapiens, UniProt Q96L34); details: protein MARK4; average of three replicates
[30] = target: ~100 representative kinases (Homo sapiens, UniProt Q9H2X6); details: protein HIPK2; average of three replicates
[31] = target: ~100 representative kinases (Homo sapiens, UniProt Q9H4A3); details: Protein WNK1; DSF; average of three replicates
[32] = target: ~100 representative kinases (Homo sapiens, UniProt Q9NSY1); details: Protein BMP2K; average of three replicates
[33] = target: ~100 representative kinases (Homo sapiens, UniProt Q9UEE5); details: Protein STK17A; DSF; average of three replicates
[34] = target: ~100 representative kinases (Homo sapiens, UniProt Q9UEW8); details: Protein STK39; DSF; average of three replicates
[35] = target: ~100 representative kinases (Homo sapiens, UniProt Q9UPE1); details: Protein SRPK3; DSF; average of three replicates

Cc1ccc(C(=O)Nc2ccc(CN3CCN(C)CC3)c(C(F)(F)F)c2)cc1C#Cc1ccc2cn[nH]c2c1
dTm [1]: 8.48 K | dTm [2]: 3.16 K | dTm [3]: 10.75 K | dTm [4]: 16.53 K | dTm [5]: 2.19 K | dTm [6]: -3.32 K | dTm [7]: 18.89 K | dTm [8]: 19.53 K | dTm [9]: -3.55 K | dTm [10]: 40.88 K | dTm [11]: 7.43 K | dTm [12]: -4.57 K | dTm [13]: -1.47 K | dTm [14]: -1.88 K | dTm [15]: -5.79 K | dTm [16]: 2.17 K | dTm [17]: -0.91 K | dTm [18]: 2.26 K | dTm [19]: -1.48 K | dTm [20]: -1.46 K | dTm [21]: -10.30 K | dTm [22]: 2.79 K | dTm [23]: 1.01 K | dTm [24]: -0.97 K | dTm [25]: 5.01 K | dTm [26]: 5.81 K | dTm [27]: 16.93 K | dTm [28]: 1.11 K | dTm [29]: 0.47 K | dTm [30]: -2.23 K | dTm [31]: 1.03 K | dTm [32]: 3.84 K | dTm [33]: -0.32 K | dTm [34]: 3.55 K | dTm [35]: 7.84 K
